Our source for the activation values is PubChem BioAssay (NCATS).

By UniProt entry, the sequences of proteins in these tests, tags left out. Where a name states a change or a piece, a line headed by the entry shows the natural chain unless it says otherwise.
UniProt P10828: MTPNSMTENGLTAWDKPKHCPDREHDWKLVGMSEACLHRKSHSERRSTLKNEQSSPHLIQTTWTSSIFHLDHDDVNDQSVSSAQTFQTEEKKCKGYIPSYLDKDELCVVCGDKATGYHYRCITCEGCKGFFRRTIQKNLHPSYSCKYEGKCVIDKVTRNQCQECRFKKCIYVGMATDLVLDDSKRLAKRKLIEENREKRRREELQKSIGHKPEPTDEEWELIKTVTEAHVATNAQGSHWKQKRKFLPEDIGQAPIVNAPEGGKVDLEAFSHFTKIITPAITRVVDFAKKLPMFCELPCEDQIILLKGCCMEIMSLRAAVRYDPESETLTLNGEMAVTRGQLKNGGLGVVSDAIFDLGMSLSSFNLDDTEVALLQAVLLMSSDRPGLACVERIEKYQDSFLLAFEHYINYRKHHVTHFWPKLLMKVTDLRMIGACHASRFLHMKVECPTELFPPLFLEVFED

Molecules are shown by their SMILES. Several values for one entry are separate records, joined by “and”; a condition that tells them apart may be missing. Equal values may be shown once. This is a selection; strong and weak results do not stand in their true shares. Records with an inconclusive call do not appear. Activity calls are given as the source filed them. Calls come from the whole dose curve.

This test addresses Thyroid hormone receptor beta (Homo sapiens) (UniProt P10828). In words: qHTS assay for small molecule agonists of thyroid hormone receptor beta signaling (AID 588545). Conditions: TR-UAS-bla GripTite HEK 293, beta-lactamase ratio, agonist mode, 18 h, percent of T3 response, DMSO as zero; at 76.7 µM (top of the series). From the text:
NIH Chemical Genomics Center [NCGC]
U.S. Environmental Protection Agency [EPA]
National Institutes of Environmental Health Sciences [NIEHS]
National Toxicology Program [NTP]
Thyroid hormone receptor (TR) belongs to nuclear hormone receptor superfamily. There are two subtypes for TR: TR-alpha and TR-beta. TR-beta plays a major role in regulating plasma cholesterol levels and it mediates the biological activities of thyroid hormone. Screening environmental chemicals on TR-beta signaling will provide important information for the mechanism of compound action.
NCGC Assay Protocol Summary
Using a beta-lactamase reporter-gene under control of the TR response element, a cell-based assay [GeneBLAzer TR-UAS-bla-GripTite assay developed by Invitrogen] was used to measure TR-beta signaling in agonist mode. TR-UAS-bla-GripTite HEK 293 cells were used with assay medium containing 2% charcoal/dextran FBS, 0.1 mM NEAA and 1 mM sodium pyruvate. The assay was performed in clear bottom black Greiner 1536-well plates. T3 was used as a positive control in the screen. Library compounds were measured for their ability to stimulate the reporter gene activity. Compounds were screened in a titration series in 1536-well format. The fluorescence intensity (405 nm excitation, 460/530 nm emission) was measured using an EnVision plate reader. Data was normalized relative to T3 control (10 nM, 100%), and DMSO only wells (basal, 0%). Concentration-response titration points for each compound were fitted to the Hill equation yielding concentrations of half-maximal stimulation (EC50) and maximal response (efficacy) values.
qHTS protocol for TR-beta beta-lactamase assay in agonist mode
[Step] [Parameter] [Value] [Description]
1. Reagent; 6 uL; 2500 cells/well
2. Incubation; 37 C for 4 hrs
- Dose response; start 3.8 uM, 1:3 dilutions, duplicates in first column
- Two columns of each 10 and 0.4 nM (finals) concentrations.
5. Incubation; 37 C for 18 hrs
6. Detection reagent; 1 uL of CCF4-dye
7. Incubation; RT for 2 hrs
8. Detection; Fluorescence; Envision plate reader
In general terms: qHTS replaces the single test concentration by a dilution series.
`CCCCO[P+](=O)OCCCC`: the activation is inactive: 1.18%.
As for `O=C1C2CC=CCC2C(=O)N1SC(Cl)(Cl)C(Cl)Cl` (stereo not given), the figure is inactive: 12.5%.
As for `CC(C)OP(=O)(OC(C)C)SCCNS(=O)(=O)c1ccccc1`, the figure is inactive: -1.57%; as for `NC(=O)Nc1ccc([As](=O)(O)O)cc1`, inactive: -19.6%.
As for `Cc1cc([N+](=O)[O-])cc([N+](=O)[O-])c1O`, the figure is inactive: 5.26% and inactive: -6.47%; as for `CN(N=O)C(=N)N[N+](=O)[O-]`, inactive: 6.33%; as for `CC(C)OP(=S)(OC(C)C)SCCNS(=O)(=O)c1ccccc1`, inactive: -5.32% and inactive: -4.91%.
For the compound `ClP(Cl)c1ccccc1`, the activation was inactive: -6.04%.
The same measure for `O=[N+]([O-])c1ccc([N+](=O)[O-])cc1`: inactive: -27%.
As for `COP(=S)(Cl)OC`, the figure is inactive: -0.101%.
